Amino acid sequences for entries named in this document (tags omitted).
ATP-dependent Clp protease proteolytic subunit (Bacillus subtilis (strain 168)), P80244, UniProt P80244, whole entry, looked up: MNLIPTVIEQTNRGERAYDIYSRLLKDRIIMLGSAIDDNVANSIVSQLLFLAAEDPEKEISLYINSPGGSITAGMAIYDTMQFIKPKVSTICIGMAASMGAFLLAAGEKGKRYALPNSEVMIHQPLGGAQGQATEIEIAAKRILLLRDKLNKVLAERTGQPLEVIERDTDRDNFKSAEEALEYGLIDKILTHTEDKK

# Nrf2 block: inhibitors of Nrf2 signaling; A549 ARE-Fluc reporter, luciferase luminescence, 18-24 h; Potency, µM (top dose mostly 46 µM), without a hit: top-dose activity change, negative = inhibition, actives largely listed as inhibitors; actives 2.1% (n = 360,000); further: potency means the concentration at half of the fitted maximal effect; on the % scale 0 is the no-effect control and ±100 the full control effect; nearly all actives have a fitted effect of over 60% in size
#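 Nrf2 activity is the BugLite luminescence, read 15 min after reagent at room temperature, following CellTiter-Fluor cytotoxicity readout (30 min, 37C). Compound titrations were applied for 18-24 h to 5000 A549 ARE_Fluc cells/well in 5% FBS OPTI-MEM.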
# Nrf2 ARE act: activators of Nrf2 (ARE) signaling | AREc32 ARE-luciferase reporter (MCF7-derived line), luminescence, 24 h | Potency, µM (highest dose often 46.1 µM), for the others: at the highest dose activation, hits mostly activators | actives 0.31% (n = 410,000) | AID 624171; further: potency means the concentration at half of the fitted maximal effect; % of control where 0% means no effect; nearly all actives have a fitted effect of over 65% in size
#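 Luminescent ARE reporter assay in AREc32_Fluc cells: overnight plating at 37 deg C, 24 hr compound incubation, Steady-Glo added, 30 min RT before reading.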
# p53 reactivator: re-activators of mutant p53 | Potency, µM (top dose mostly 92.2 µM), for inactives: top-dose activity change, positive = activation, most hits filed as activators | actives 0.063% (n = 320,000) | AID 504706 | H1299 p53-A138V BP100-luciferase reporter, luminescence, 24 h; further: potency means the concentration at half of the fitted maximal effect; % of control where 0% means no effect; nearly all actives have a fitted effect of over 45% in size
#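 p53-null H1299 cells stably carrying temperature-sensitive p53-A138V and a BP100-luciferase reporter were pinned with compounds (4-point, 1:5 series) and held 24 hrs at 37 deg C. Luminescence was read 10 min after detection reagent.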
# A549 viability: counter-screen for Nrf2 inhibitors: cytotoxicity in A549 cells. Potency, µM (series often up to 46 µM), for the others: at the top dose activity change, negative = cytotoxicity, actives largely listed as inhibitors. actives 0.16% (n = 390,000). A549 ARE-Fluc cells, CellTiter-Fluor viability, 18-24 h; further: potency means the concentration at half of the fitted maximal effect; on the % scale 0 is the no-effect control and ±100 the full control effect
#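 A549 ARE_Fluc cells in 5% FBS OPTI-MEM were exposed to compounds in concentration-response for 18-24 h at 37 deg C. Viability was read by CellTiter-Fluor fluorescence (Ex 405/Em 525) after 30 min, before the luciferase read.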
# miR-21 FLuc: miR-21 reporter, rising signal; HeLa miR-21 FLuc reporter, luciferase, 48 h; Potency, µM (doses to about 38.3 µM), for inactives: at the highest dose reporter change, positive = more light; 340,000 tested, under 10 active; AID 2288; active = well fitted rising curve with a large enough effect; inconclusive = small, poorly fitted or top-dose-only effect; inactive = no such curve, though single readings can be large or run the other way;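 further: % of control where 0% means no effect; miR-21 action dims this reporter so a rising signal means less miR-21 action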
#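 HeLa cells endogenously expressing miR-21, stably carrying CMV-driven firefly luciferase with a downstream miR-21 binding site, 2000 cells/well. Titrations up to approximately 40 uM, 48 hours; luciferase luminescence read.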
# ClpP mod: qHTS Assay for Activators of ClpP; purified B. subtilis ClpP, FRET peptide cleavage, 20 min; actives 1.9% (n = 340,000); ATP-dependent Clp protease proteolytic subunit (Bacillus subtilis (strain 168)), P80244; Potency, µM (highest dose often 57.5 µM), for the others: at the highest dose activity change, negative = active; active means well fitted falling curve with a large enough effect; inconclusive means small, poorly fitted or top-dose-only effect; inactive means no such curve, though single readings can be large or run the other way; further: potency means the concentration at half of the fitted maximal effect; the source files actives as falling curves though it sought activators and does not explain the sign; nearly all actives have a fitted effect of over 65% in size
#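 ClpP 10 microg/mL final, pH 8 Tris/KCl buffer with BSA, glycerol, Tween-20; compound pinned in; FRET-FV substrate; RT 20 min; Ex320/Em430; ΔFRET vs ADEP 5.8 microM, DMSO, no enzyme.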
# Active calls of the source: *; ? = inconclusive; / = no result; [ ] = dose if it differs, or a comment. Shown are actives, neighbours in structure and some others; about 3.7% of the full set was active somewhere. Unless noted, the call rests on the fitted dose curve; in most records, active means well fitted curve in the direction sought with a large enough effect; inconclusive means small, poorly fitted or top-dose-only effect, or another doubt; inactive means no such curve, though single readings can be large; an effect the other way counts as inactive or inconclusive.
# The first 2 records (preview)
# The line under a structure holds: Nrf2 block, Nrf2 ARE act, p53 reactivator, A549 viability, miR-21 FLuc, ClpP mod
- COc1cc2nc(N3CCCCC3)nc(NC3CCN(Cc4ccccc4)CC3)c2cc1OC
 : /, /, /, /, /, 4%
- CCC1CN(C(=O)N2CCC(C(=O)NCCc3cc(OC)ccc3OC)CC2)c2ccccc2O1 (stereo not given)
 : 23µM*, 0%, /, -8%, 21%, -6%

# The whole of this part, from the first entry:
# The line under a structure holds: Nrf2 block, Nrf2 ARE act, p53 reactivator, A549 viability, miR-21 FLuc, ClpP mod
- COc1cc2nc(N3CCCCC3)nc(NC3CCN(Cc4ccccc4)CC3)c2cc1OC
 : /, /, /, /, /, 4%
- CCC1CN(C(=O)N2CCC(C(=O)NCCc3cc(OC)ccc3OC)CC2)c2ccccc2O1 (stereo not given)
 : 23µM*, 0%, /, -8%, 21%, -6%
- CCC1CN(C(=O)N2CCC(C(=O)NCc3cc(OC)ccc3OC)CC2)c2ccccc2O1 (stereo not given)
 : 21%, 3%, /, 7%, -3%, 0%
- COC(=O)CSc1nnc(-c2sc3ccccc3c2Cl)o1
 : 16µM*, -2%, -21%, -16%, 10%, ?
- COc1ccc(CCNC(=O)Cn2nc(-c3ccc(Cl)cc3)ccc2=O)cc1OC
 : /, 4%, /, 1%, 1%, 0%
- Cc1cc(/C=C2\Sc3ccccc3N2C)cc(C)[n+]1CC1CCCO1 (stereo not given)
 : 1.2µM*, 12%, 6%, 4.1µM*, 27%, /
- CCCCNC(=O)[C@@H]1CC=C[C@@H]2CCN(C3CCCCC3)C(=O)[C@@H]21
 : /, /, /, /, /, 1%
- CCc1cccc2c(C(=O)COC(=O)c3ccc([N+](=O)[O-])s3)c[nH]c12
 : ?, 19%, 3%, 21µM*, -2%, -1%
- O=C(OCC(=O)c1c[nH]c2ccccc12)c1ccc([N+](=O)[O-])s1
 : -6%, 27%, 10%, -8%, 0%, /
- Cc1ccc(NC(=O)C(=O)NCC(c2ccc3c(c2)OCO3)N2CCOCC2)c(C)c1 (stereo not given)
 : /, 0%, /, 0%, -3%, -3%

# (listing goes on)
# The line under a structure holds: Nrf2 block, Nrf2 ARE act, p53 reactivator, A549 viability, miR-21 FLuc, ClpP mod
- CCCCCCCCN1[C@@H](CC(=O)OC)c2ccc(/C=C/C(=O)OC)cc2S1(=O)=O
 : /, /, /, /, /, -8%
- CCOc1cc(/C=C2\SC(=N)N(c3nccs3)C2=O)ccc1OCCN1CCOCC1
 : 18µM*, 0%[9.22 µM], -5%, 21µM*, 17%, -2%
- CCC1CN(C(=O)N2CCC(C(=O)N3CCN(c4ccccc4)CC3)CC2)c2ccccc2O1 (stereo not given)
 : ?, 4%, /, -6%, 7%, 1%
- Nc1ccn([C@@H]2O[C@H](CNCc3cc(Cl)ccc3OCc3ccc(Cl)cc3)[C@@H](O)[C@H]2O)c(=O)n1
 : /, 0%, /, /, /, 2%
- Cc1csc2ncnc(NNC(=O)c3ccc(Cl)cc3)c12
 : 21µM*, 0%, 0%, -17%, 14%, /
- O=C(NNc1ncnc2sccc12)c1ccc(Cl)cc1
 : ?, 9%, 12%, -6%, -1%, 0%
- O=C1C=C(NC2CC2)C2(CCCCC2)O1
 : 25%, 0%, -13%, 15%, 7%, 13µM*
- O=C1C=C(NCC2CCCO2)C2(CCCCC2)O1 (stereo not given)
 : 4%, -1%, 6%, 12%[1.84 µM], 0%, 0%
- Cc1cccc(-c2nc(Cn3c(SCc4cc(C)ccc4C)nc4ccncc43)c(C)o2)c1
 : ?, 4%, /, -27%, -4%, 1%
- CCN(CC)c1ccc(NC(=O)c2sc3nc(-c4ccccc4)cn3c2C)cc1
 : /, 3%, /, 0%, 25%, -3%

# A draw from above in order of molecular weight, low to high:
# The line under a structure holds: Nrf2 block, Nrf2 ARE act, p53 reactivator, A549 viability, miR-21 FLuc, ClpP mod
- O=C1C=C(NCC2CCCO2)C2(CCCCC2)O1 (stereo not given)
 : 4%, -1%, 6%, 12%[1.84 µM], 0%, 0%
- Cc1csc2ncnc(NNC(=O)c3ccc(Cl)cc3)c12
 : 21µM*, 0%, 0%, -17%, 14%, /
- CCN(CC)c1ccc(NC(=O)c2sc3nc(-c4ccccc4)cn3c2C)cc1
 : /, 3%, /, 0%, 25%, -3%
- Nc1ccn([C@@H]2O[C@H](CNCc3cc(Cl)ccc3OCc3ccc(Cl)cc3)[C@@H](O)[C@H]2O)c(=O)n1
 : /, 0%, /, /, /, 2%

# Further compounds.
# The line under a structure holds: Nrf2 block, Nrf2 ARE act, p53 reactivator, A549 viability, miR-21 FLuc, ClpP mod
- Cc1c(C(=O)Nc2ccncc2)sc2nc(-c3ccccc3)cn12
 : 10µM*, 3%, -4%, -4%, -4%, -20%
- CCCCNC(=O)/C(C#N)=C/c1ccc2c(c1)OCCO2
 : -7%, 6%, ?, -1%, -7%, 25µM*
- COc1ccc2[nH]c(=O)c(CN(C(=O)C3CCCO3)c3ccc(C)cc3)cc2c1 (stereo not given)
 : /, 0%, 9%, -12%, -7%, 28µM*
- COc1cccc(C(=O)N(Cc2cc3cc(C)ccc3[nH]c2=O)CC2CCCO2)c1 (stereo not given)
 : -1%, 0%, -7%, -11%, -23%, 32µM*
- COc1ccc2[nH]c(=O)c(CN(CC3CCCO3)C(=O)Nc3ccc(F)cc3)cc2c1 (stereo not given)
 : ?, 4%, -23%, -20%, 2%, 16µM*
- COc1ccc(N(Cc2cc3ccc(C)cc3[nH]c2=O)C(=O)C2CCCO2)cc1 (stereo not given)
 : 13%, 0%, -7%, 0%, -2%, /
- COc1cc(C(=O)N(Cc2cc3cc(C)ccc3[nH]c2=O)CC2CCCO2)cc(OC)c1OC (stereo not given)
 : 7%, 2%, -6%, 4%, -1%, -4%
- Cc1ccc(Cc2nc3ccccc3nc2SCC(=O)NCc2ccccc2Cl)cc1
 : /, -1%, /, 1%, -2%, 0%
- CCSc1nc(-c2ccc(OC)cc2)cc(-c2ccccc2)c1C#N
 : /, 0%, -3%, 12%, -4%, 28µM*
- COc1ccc(-c2cc(-c3cccs3)c(C#N)c(SCC(=O)NCc3ccccc3OC)n2)cc1
 : 4%, 0%, 1%, -11%, 0%, 40µM*

# Remaining list, next part:
# The line under a structure holds: Nrf2 block, Nrf2 ARE act, p53 reactivator, A549 viability, miR-21 FLuc, ClpP mod
- COc1ccc(-c2cc(-c3ccccc3)c(C#N)c(S(C)=O)n2)cc1 (stereo not given)
 : ?, ?, -5%, -16%, ?, ?
- Cc1cc(C)nc(N2CCC(C(=O)O)CC2)n1
 : 3%, -1%, 15%, 11%, -4%, 20µM*
- CCCNC(=O)C1CCN(c2nc(C)cc(C)n2)CC1
 : -49%, 0%, -2%, -3%, 1%, 16µM*
- CCC(C)(C)NC(=O)C1CCN(c2nc(C)cc(C)n2)CC1
 : -20%, -1%, 9%, 6%, -2%, 14µM*
- Cc1ccc(NC(=O)C2CCN(c3nc(C)cc(C)n3)CC2)cc1
 : 15%, 0%, -3%, 6%, 3%, ?
- COc1ccc(-c2nc3ccncc3[nH]2)cc1OC
 : 2%, 6%, 5%, -4%, -34%, 28µM*
- Fc1ccc(-c2nc3ccncc3[nH]2)cc1
 : ?, 1%, 17%, 1%, -44%, -14%
- CCCCN(C)C(=O)c1sc(=O)n(Cc2ccccc2C#N)c1C
 : /, -1%, /, /, /, -1%
- CN(C(=O)c1cccc(NC(=O)Cc2cccc([N+](=O)[O-])c2)c1)C1CC1
 : ?, -1%, -3%, -5%, /, 2%
- CN(C(=O)c1cccc(NC(=O)Cc2ccc([N+](=O)[O-])cc2)c1)C1CC1
 : 21µM*, 3%, 4%, -6%, /, 0%
- COCCn1c(=NC(=O)c2ccc(S(=O)(=O)N3CCc4ccccc4C3)cc2)sc2cc(S(N)(=O)=O)ccc21
 : 2%, 0%, -19%, 9%, -20%, 14µM*
- C#CCn1c(=NC(=O)c2ccc(S(=O)(=O)N3CCc4ccccc4C3)cc2)sc2cc(S(N)(=O)=O)ccc21
 : 3.3µM*, -2%, -22%, 5.2µM*, -1%, 28µM*

# Compound activity: PubChem, National Center for Advancing Translational Sciences (NCATS)
